{
  "source": "patent US20230047102A1",
  "about": "“PHARMACEUTICAL COMPOSITIONS COMPRISING N-[1-(5-CYANO-PYRIDIN-2-YLMETHYL)-1H-PYRAZOL-3-YL]-2-[4-(1-TRIFLUOROMETHYL-CYCLOPROPYL)-PHENYL]-ACETAMIDE” (Idorsia Pharmaceuticals Ltd, priority 2019, published 2023)",
  "origin": "cited, not measured here",
  "settings": "subject to certain variations of this value found in the literature; cited from earlier work",
  "data": [
    {"substance": "D-α-tocopherol polyethylene glycol 1000 succinate [Vitamin E-TPGS]", "values": [
      {"measurement": "hydrophilic-lipophilic balance (HLB) value", "result": "about 13"}
    ]}
  ]
}
